Biological target: T1, GLP-2 receptor (UniProt O95838 1-553, limits assumed)
T1 sequence (looked up): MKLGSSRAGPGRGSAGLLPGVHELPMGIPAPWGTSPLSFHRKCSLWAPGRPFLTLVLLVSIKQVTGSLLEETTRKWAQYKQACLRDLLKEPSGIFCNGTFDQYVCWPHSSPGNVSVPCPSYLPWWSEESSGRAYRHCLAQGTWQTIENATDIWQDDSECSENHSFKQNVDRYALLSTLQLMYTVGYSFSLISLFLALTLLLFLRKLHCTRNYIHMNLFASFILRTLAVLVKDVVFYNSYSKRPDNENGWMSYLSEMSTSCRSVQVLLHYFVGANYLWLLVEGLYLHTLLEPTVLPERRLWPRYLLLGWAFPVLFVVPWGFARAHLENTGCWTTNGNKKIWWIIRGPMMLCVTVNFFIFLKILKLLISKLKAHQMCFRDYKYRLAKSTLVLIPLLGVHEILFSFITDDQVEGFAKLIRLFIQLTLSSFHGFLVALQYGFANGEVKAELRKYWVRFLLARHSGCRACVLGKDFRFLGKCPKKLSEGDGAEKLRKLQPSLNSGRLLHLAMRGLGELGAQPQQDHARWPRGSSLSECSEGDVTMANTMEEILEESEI
Assay: cell-based or functional assay

EC50, CRE-luciferase reporter in HEK293 cells: 0.046 nM
B1: GLP2 (peptide)
peptide: HGDGSFSDEMNTILDNLAARDFINWLIQTKITD

Source: patent US20170327577A1 (CALIFORNIA INSTITUTE FOR BIOMEDICAL RESEARCH, published 2017)
